# Binding of CDR-mutated scFvs to a peptide of the spike HR2 region

The measurements come from Li et al. 2023 (doi:10.1038/s41467-023-39022-2) through the FLAb antibody collection.

The target is the same throughout: PDVDLGDISGINAS, from the HR2 region of SARS-CoV-2 spike.

The variants keep the light chain, the linker and the frameworks of Ab-14 (scFv order VH, a (GGGGS)3 linker, VL).
VH: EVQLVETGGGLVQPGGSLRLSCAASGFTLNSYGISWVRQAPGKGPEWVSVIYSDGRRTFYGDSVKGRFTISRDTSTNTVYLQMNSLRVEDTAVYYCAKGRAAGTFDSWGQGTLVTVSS
VL: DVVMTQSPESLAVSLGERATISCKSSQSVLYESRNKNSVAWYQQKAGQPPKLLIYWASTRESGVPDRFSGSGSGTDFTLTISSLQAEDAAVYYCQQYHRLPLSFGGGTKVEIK

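The variants were designed computationally from a first round of random CDR variants and then made and measured. Group labels follow the data file (Ctrl: baseline library sampled from a position-specific scoring matrix, with some repeated check sequences; GPLM: also part of the Gaussian process libraries; Gen: genetic algorithm; a sequence that several methods proposed may carry one label only). In AlphaSeq, yeast of one mating type display the scFv and yeast of the other type display the target. The frequency of each diploid, read from paired DNA barcodes, reflects how well the two displayed proteins bind. Read counts were normalised to the haploid input and turned into Kd by a linear fit to BCL2-family pairs of known affinity, for each replicate. There are six technical replicates.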

Substitutions are numbered in sequence along the VH above, starting at 1 (not Kabat).
Values are log10 of the apparent Kd in nM; lower means stronger binding.
"nd" means that the variant was in the library but no mating with the target was seen in that replicate; the authors take this as a sign of poor binding, and no number exists.
A sequence measured in both rounds can read differently, since the two assays cover different ranges.

{"changes": "G26H+S31D+S63K+G99N+R100Q", "group": "Ctrl", "log10 Kd (nM) by replicate": "nd / nd / nd / nd / 2.09 / nd", "signal with controls": "0/18"}
{"changes": "G103I", "group": "Ctrl", "log10 Kd (nM) by replicate": "nd / nd / nd / nd / nd / nd", "signal with controls": "0/18"}
{"changes": "S53A+F59A+T104E", "group": "Ctrl", "log10 Kd (nM) by replicate": "nd / nd / nd / nd / nd / nd", "signal with controls": "0/18"}
{"changes": "A101Q+F105A", "group": "Ctrl", "log10 Kd (nM) by replicate": "nd / nd / nd / nd / nd / nd", "signal with controls": "0/18"}
{"changes": "G61S+T104L", "group": "Ctrl", "log10 Kd (nM) by replicate": "nd / 1.55 / 3.67 / nd / nd / 2.67", "signal with controls": "1/18 (2.43)"}
{"changes": "S31D+G33S+G61T+R100T+A101T", "group": "Ctrl", "log10 Kd (nM) by replicate": "nd / nd / nd / nd / nd / nd", "signal with controls": "0/18"}
{"changes": "S35H+S53A+R56F+D106S", "group": "Ctrl", "log10 Kd (nM) by replicate": "1.47 / 1.34 / 0.99 / 1.25 / 1.89 / 0.98", "signal with controls": "2/18 (1.97)"}
{"changes": "G26K+T28S+K65V+A102S+S107Q", "group": "Ctrl", "log10 Kd (nM) by replicate": "nd / nd / nd / nd / nd / nd", "signal with controls": "0/18"}
{"changes": "T28Q+G61S+G99R+D106V", "group": "Ctrl", "log10 Kd (nM) by replicate": "nd / nd / nd / 0.60 / nd / nd", "signal with controls": "0/18"}
{"changes": "N30E+Y60I+V64F", "group": "Ctrl", "log10 Kd (nM) by replicate": "nd / nd / nd / nd / nd / nd", "signal with controls": "0/18"}
{"changes": "I34Y+R56Y+F105G", "group": "Ctrl", "log10 Kd (nM) by replicate": "nd / nd / nd / nd / nd / nd", "signal with controls": "0/18"}
{"changes": "F27V+T28G+L29R+S31M", "group": "Ctrl", "log10 Kd (nM) by replicate": "nd / nd / nd / nd / nd / nd", "signal with controls": "0/18"}
{"changes": "T28A+N30D+G103D", "group": "Ctrl", "log10 Kd (nM) by replicate": "nd / nd / nd / nd / nd / nd", "signal with controls": "0/18"}
{"changes": "S31M+A101V", "group": "Ctrl", "log10 Kd (nM) by replicate": "1.75 / 0.75 / 0.74 / 0.36 / 0.95 / 1.06", "signal with controls": "0/18"}
{"changes": "G61V", "group": "Ctrl", "log10 Kd (nM) by replicate": "nd / nd / nd / 1.33 / nd / nd", "signal with controls": "0/18"}
{"changes": "R100K", "group": "Ctrl", "log10 Kd (nM) by replicate": "nd / 1.07 / 2.30 / 2.22 / 1.73 / 2.34", "signal with controls": "0/18"}
{"changes": "T28N+S31M+I34S+S53A+F105A+D106H", "group": "Ctrl", "log10 Kd (nM) by replicate": "nd / nd / 1.64 / nd / nd / nd", "signal with controls": "0/18"}
{"changes": "F59A+S107V", "group": "Ctrl", "log10 Kd (nM) by replicate": "0.74 / 0.39 / 0.54 / 0.42 / 0.74 / 0.87", "signal with controls": "1/18 (3.12)"}
{"changes": "F27A+G61F+D106E", "group": "Ctrl", "log10 Kd (nM) by replicate": "nd / nd / nd / nd / nd / nd", "signal with controls": "0/18"}
{"changes": "S31D+Y32H", "group": "Ctrl", "log10 Kd (nM) by replicate": "1.30 / -0.13 / 0.33 / 0.24 / 0.01 / 0.47", "signal with controls": "0/18"}
{"changes": "A101W+G103K+F105K", "group": "Ctrl", "log10 Kd (nM) by replicate": "nd / nd / nd / nd / nd / nd", "signal with controls": "0/18"}
{"changes": "T28S+F59A", "group": "Ctrl+GPLM_Gen", "log10 Kd (nM) by replicate": "0.55 / 0.24 / 0.15 / 0.27 / 0.32 / 0.65; -0.09 / 0.27 / -0.09 / 0.26 / 0.09 / -0.51", "signal with controls": "1/36 (2.44)"}
{"changes": "F59A+A102H", "group": "Ctrl", "log10 Kd (nM) by replicate": "nd / nd / nd / nd / nd / nd", "signal with controls": "0/18"}
{"changes": "S53A+R56W+T58V+D106L", "group": "Ctrl", "log10 Kd (nM) by replicate": "nd / nd / nd / 2.09 / nd / nd", "signal with controls": "0/18"}

Top 3 of the variants detected in all replicates, tightest first:

| changes | group | log10 Kd (nM) by replicate | signal with controls |
|---|---|---|---|
| T28S+F59A | Ctrl+GPLM_Gen | 0.55 / 0.24 / 0.15 / 0.27 / 0.32 / 0.65; -0.09 / 0.27 / -0.09 / 0.26 / 0.09 / -0.51 | 1/36 (2.44) |
| S31D+Y32H | Ctrl | 1.30 / -0.13 / 0.33 / 0.24 / 0.01 / 0.47 | 0/18 |
| F59A+S107V | Ctrl | 0.74 / 0.39 / 0.54 / 0.42 / 0.74 / 0.87 | 1/18 (3.12) |

The parent sequence was in this pool as ten entries: three were never detected, three once, and four in most replicates, with averages from 0.34 to 2.37.
In the paper, a design with two or fewer of six values counts as a poor binder.
Three control strains display no target. For all heavy chain designs, 1% of the pairings with them gave a signal, with a median of 2.08 and one signal in twenty below 0.84, so weak values seen in few replicates may be background. The control count says in how many pairings with the empty strains this scFv gave a signal, with their mean in brackets.
Some sequences occur more than once in the pool; their replicates are listed entry by entry, parted by semicolons.